Test system: human red blood cells (hRBCs)
Assay: Hemolysis assay
Format: cell-based
Settings: concentration causing 50% hemolysis

## Pexiganan
hRBCs, 37 °C, 1 h
  Hemolysis HC50: 120 µg/mL
Value in parentheses
  Hemolysis HC50: 45 µM
